Only a part is listed here, and it is no random draw. Activity calls are given as the source filed them.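 The calls were made as follows: active = fitted curve reaching 40% activation at a concentration no higher than the top valid dose tested; inconclusive = flat curve between 30 and 70% activation, or poor fit; inactive = the rest, including opposite-direction effects.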

The test is described as follows: HRE reporter activators under added iron – cell-based, U2OS, luminescence, dry powder, set 2, mechanism study for HIF pathway activator project, dose response (AID 493237). The note with it: U2OS HRE-luciferase reporter, iron condition, at 38 µM (top of the series). An outline of the steps:
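System – human U2OS osteosarcoma cells with stable 3×HRE-driven luciferase reporter · Times – 24 h pre-dosing growth, 24 h compound exposure, 37 °C · Technique – Steady-Glo luminescence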
(Reporter assays use an easily measured gene product as a stand-in for the process of interest.)

For `O=c1[nH]c2ccccc2n1C1CCN(Cc2ccc(O)c3ncccc23)CC1`, the activation was inactive: -1.2%.

Values taken from PubChem BioAssay AID493237 (Broad Institute, 2011).
